According to PMC5332414, “Mycobacterium abscessus subsp. abscessus Is Capable of Degrading Pseudomonas aeruginosa Quinolone Signals” (Frontiers in Microbiology, 2017):

Tested on: CCCCCCCc1[nH]c2ccccc2c(=O)c1O
Test: purified protein
Conditions: apparent, co-substrate O2, 50 mM Tris, 2 mM EDTA, 10% PEG 1500, 4% (v/v) DMSO, pH 8.0, 30°C, natural variant AqdC^II of clinical isolates (strain P13 group)

In the case of “AqdC (AqdC^I) (Mycobacteroides abscessus ATCC 19977; A133T/R129P)”, the Km is reported as 13.6 ± 1.6 µM and the kcat is reported as 61.0 ± 4.3 s⁻¹.
